# Laboratory results from patent US20260384421A1, “NOVEL COMPOUNDS THAT CAN BE USED AS THERAPEUTIC AGENTS” (published 2026).
# Tests used:
# [1] = test system: HPEKp cells; test: proliferation assay with human epidermal keratinocyte progenitors (HPEKp), selectivity versus MDA-MB-231
# Description: (§1) These hyperproliferative processes can be benign or malignant and include hyperplasia, neoplasia, cancer and pre-cancerous lesions, and metastases. The antiproliferative activities of compounds falling under general formula (I) were investigated on human primary epidermal keratinocytes (HPEK) and human, murine and canine cell lines derived from hyperproliferative tissue or different cancer types, including MDA-MB-231, ZR-75-30, HCC-1395, HCC-1937, and T-47D all originating from cancer of the breast, JURKAT, RPMI-8402, LOUCY, TANQUE, REC-1, HL-60, NB-4 all originating from different types of blood cancer including lymphoma and leukemia of T-cells, B-cells and myeloid cells, TT originating from cancer of the neuroendocrine system, HeLa originating from cancer of the cervix, 23132/87, SW-948, and HCT-116 all originating from cancer of the gastrointestinal tract including stomach and colon, BHY originating from cancer of the mucosal epithelium, A-431 originating from cancer of the skin, HEP-G2 originating from cancer of the liver, NCI-H460 and A-549 both originating from cancer of the lung, PANC-1 originating from cancer of the pancreas, U-87 MG originating from cancer of the brain, A-375 and RVH-421 both originating from cancer of melanocytes, SW-1353 originating from cancer of bone-derived chondrocytes, C2C12 a mouse cell line originating from hyperproliferative muscle progenitor cells, LL/2 a mouse cell line originating from cancer of the lung, CF21.T a dog cell line originating from cancer of the connective tissue. To this end, according cells were seeded into 96-well plates (CORNING #3598) suitable for fluorescence assays at following initial cell numbers: 1000 cells per well for HPEK; 3000 cells per well for MDA-MB-231, 8000 cells per well for ZR-75-30, 1500 cells per well for HCC-1395, 1500 cells per well for HCC-1937, 3000 cells per well for T-47D, 1500 cells per well for JURKAT, 5000 cells per well for RPMI-8402, 9000 cells per well for LOUCY, 1500 cells per well for TANQUE, 9000 cells per well for REC-1, 1000 cells per well for HL-60, 1000 cells per well for NB-4, 9000 cells per well for TT, 2000 cells per well for HeLa, 2000 cells per well for 23132/87, 9000 cells per well for SW-948, 700 cells per well for HCT-116, 1500 cells per well for BHY, 700 cells per well for A-431, 1500 cells per well for HEP-G2, 500 cells per well for NCI-H460, 1000 cells per well for A-549, 1500 cells per well for PANC-1, 2500 cells per well for U-87 MG, 700 cells per well for A-375, 1500 cells per well for RVH-421, 2000 cells per well for SW-1353, 500 cells per well for C2C12, 500 cells per well for LL/2, and 3000 cells per well for CF21.T. In a volume of 90 μL per well of culture medium the cells were treated with compounds at indicated final concentrations by adding 10 μL per well of 10× compound working solutions from 1:100 pre-diluted 1000× compound DMSO stock-solutions in H2O (Water For Injection, WFI, Fisher Scientific, Gibco™ #A12873) or with the empty carrier DMSO (AppliChem, #A3672) at 0.1% v/v as control yielding a final volume of 100 μL per well. At day 5 after starting the treatments the cells were subjected to the alamarBlue® Proliferation Assay (Bio-Rad Serotec GmbH, BUF012B) according to the protocol of the manufacturer. The readout was taken with a multi-well plate-reader (Tecan Spark®) in the fluorescence mode with applying a filter for excitation at 560 nm (band width 10 nm) and for emission at 590 nm (band width 10 nm). Treatment for maximum proliferation inhibition with the commercial cytotoxic compound (S)-(+)-camptothecin (Fluorochem #M01564) at a concentration of 10 μM was included on each plate for assay quality control. Some of the test compounds of the present invention may have been obtained and applied as their salt forms.
# (§2) The assays were performed in duplicate or more replicates of independent single experiments each containing a three- to six-fold replicate for every condition. […]
# [2] = test system: MDA-MB-231 cells; test: alamarBlue proliferation assay with MDA-MB-231 cells (glucose-free Leibovitz's L-15 medium)
# Description: as §1, §2
# [3] = test system: HEP-G2 cells; test: alamarBlue proliferation assay with HEP-G2 cells; conditions: read-out: Activity on HEP-G2: IC50, RPMI 1640 medium, 10% FBS
# Description: as §1, §2
# [4] = test system: A-549 cells; test: alamarBlue proliferation assay with A-549 cells; conditions: read-out: Activity on A-549: IC50, DMEM medium, 10% FBS
# Description: as §1, §2
# [5] = test system: HCT-116 cells; test: alamarBlue proliferation assay with HCT-116 cells; conditions: read-out: Activity on HCT-116: IC50, McCoy's 5A medium, 10% FBS
# Description: as §1, §2
# [6] = test system: NB-4 cells; test: alamarBlue proliferation assay with NB-4 cells; conditions: read-out: Activity on NB-4: IC50, RPMI 1640 medium, 10% FBS
# Description: as §1, §2
# [7] = test system: BHY cells; test: alamarBlue proliferation assay with BHY cells; conditions: read-out: Activity on BHY: IC50, DMEM medium, 10% FBS
# Description: as §1, §2
# [8] = test system: LL/2 cells; test: alamarBlue proliferation assay with LL/2 cells; conditions: read-out: Activity on LL/2: IC50; LL/2 murine Lewis lung carcinoma cells, DMEM medium, 10% FBS
# Description: as §1, §2
# [9] = test system: TANQUE cells; test: alamarBlue proliferation assay with TANQUE cells; conditions: read-out: Activity on TANOUE: IC50, RPMI 1640 medium, 10% FBS
# Description: as §1, §2
# [10] = test system: NCI-H460 cells; test: alamarBlue proliferation assay with NCI-H460 cells; conditions: read-out: Activity on NCI-H460: IC50, RPMI 1640 medium, 10% FBS
# Description: as §1, §2
# [11] = read-out: Activity on MDA-MB-231 (IC50), glucose-free Leibovitz's L-15, 10% FBS, day 5, alamarBlue
# [12] = read-out: Activity (HPEK), HPEK cells (HPEKp), antiproliferative activity, class by IC50
# [13] = read-out: Activity (MDA), MDA-MB-231 cells, antiproliferative activity, class by IC50
Structure (SMILES),"IC50 [2, 11] [µM]",IC50 [3] [µM],"IC50 [1, 12] [µM]",IC50 [4] [µM],"IC50 [2, 13] [µM]",also measured
C#CCN1CCN(C(=O)c2ccc(Oc3ccc(C4CCC(=NO)CC4)cc3CO)cc2)CC1 (stereo not shown),≤ 5,–,–,–,–,"IC50 ([1]; read-out: Activity (HPEK): antiproliferative activity on HPEK cells, IC50 category, HPEK cells cultivated in CnT-Prime medium): > 10 µM; IC50 ([2]; read-out: Activity (MDA): antiproliferative activity on MDA-MB-231 cells, IC50 category, MDA-MB-231 cells cultivated in glucose-free Leibovitz's L-15 medium): < 5 µM"
COc1ccc(CN2CC3(C2)CN(C(=O)c2ccc(Oc4ccc(C5CCCCC5)cc4CO)cc2)C3)cc1,≤ 1,≤ 1,< 5,≤ 1,< 1,–
C#CCN1CCN(C(=O)c2ccc(Oc3ccc(C4CCCCC4)cc3CO)cc2)CC1,≤ 20,–,–,–,–,–
COc1ccc(CN2CCN(C(=O)c3ccc(Oc4cc(Cl)c(C5CCC(OC)CC5)c(Cl)c4O)cn3)CC2)cc1 (stereo not shown),–,≤ 5,–,≤ 5,–,–
O=Cc1cc(C2CCCCC2)ccc1Oc1ccc(C(=O)N2CC3(CN(Cc4ccc(Cl)cc4)C3)C2)cc1,≤ 5,≤ 5,–,≤ 5,–,–
COC1CCC(c2ccc(Oc3ccc(C(=O)N4CC5(CN(Cc6ccc(Cl)cc6)C5)C4)cc3)c(CO)c2)CC1 (stereo not shown),≤ 1,≤ 1,< 10,≤ 1,< 1,–
Cc1ccc(S(=O)(=O)N2CC3CN(C(=O)c4ccc(Oc5ccc(C6CCC7(CC6)OCCO7)cc5CO)cc4)CC3C2)cc1 (stereo not shown),≤ 20,≤ 20,–,–,–,–
O=C(c1ccc(Oc2ccc(C3CCCCC3)cc2CO)cn1)N1CC2(CN(Cc3ccc(Cl)cc3)C2)C1,≤ 5,≤ 5,–,–,–,–
O=C(c1ccc(Oc2ccc(C3CCCCC3)cc2CO)cc1)N1CC2(CN(Cc3ccccc3)C2)C1,≤ 5,–,< 10,–,< 5,–
O=Cc1cc(C2CCCCC2)ccc1Oc1ccc(C(=O)N2CCN(Cc3ccccc3)CC2)cc1,≤ 1,≤ 5,< 5,≤ 5,< 1,–
O=C(c1ccc(Oc2ccc(C3CCC4(CC3)OCCO4)cc2CO)cc1)N1CCN(CCO)CC1,≤ 20,–,–,–,–,–
COc1ccc(CN2CC3(C2)CN(C(=O)c2ccc(Oc4ccc(C5CCC(OC)CC5)cc4CO)cc2)C3)cc1 (stereo not shown),≤ 1,≤ 5,< 10,≤ 5,< 1,IC50 [5]: ≤ 5 µM; IC50 [6]: ≤ 5 µM; IC50 [7]: ≤ 5 µM
O=C(c1ccc(Oc2ccc(C3CCC4(CC3)OCCO4)cc2CO)cc1)N1CCN(Cc2ccc(Cl)cc2)C2CCCCC21 (stereo not shown),≤ 5,≤ 5,< 10,≤ 5,< 1,IC50 [5]: ≤ 5 µM; IC50 [6]: ≤ 5 µM; IC50 [8]: ≤ 5 µM; IC50 [7]: ≤ 5 µM; IC50 [9]: ≤ 5 µM
COc1ccc(CN2CCN(C(=O)c3ccc(Oc4ccc(C5CCCCC5)cc4C=O)cc3)CC2)cc1,≤ 0.2,≤ 0.2,< 5,≤ 0.2,< 1,IC50 [10]: ≤ 1 µM
O=C(c1ccc(Oc2ccc(C3CCC4(CC3)OCCO4)cc2CO)nc1)N1CCN(Cc2ccccc2)CC1,–,–,–,–,–,IC50 [5]: ≤ 0.2 µM; IC50 [6]: ≤ 0.2 µM; IC50 [8]: ≤ 5 µM; IC50 [7]: ≤ 0.2 µM; IC50 [9]: ≤ 0.2 µM
COc1ccc(CN2CC3(C2)CN(C(=O)c2ccc(Oc4ccc(C5CCC(OC)CC5)cc4CO)cn2)C3)cc1 (stereo not shown),≤ 5,–,< 10,–,< 5,–

# Read-outs that look alike come from different tables or passages of the source.
